One molecule from ChEMBL document CHEMBL3638841, “Aryl- and heteroaryl-substituted tetrahydroisoquinolines and use thereof to block reuptake of norepinephrine, dopamine, and serotonin” (2015) can be followed below.

Sequences of proteins named here, by UniProt entry; tags and fusion partners are left off.
UniProt P23975, whole entry: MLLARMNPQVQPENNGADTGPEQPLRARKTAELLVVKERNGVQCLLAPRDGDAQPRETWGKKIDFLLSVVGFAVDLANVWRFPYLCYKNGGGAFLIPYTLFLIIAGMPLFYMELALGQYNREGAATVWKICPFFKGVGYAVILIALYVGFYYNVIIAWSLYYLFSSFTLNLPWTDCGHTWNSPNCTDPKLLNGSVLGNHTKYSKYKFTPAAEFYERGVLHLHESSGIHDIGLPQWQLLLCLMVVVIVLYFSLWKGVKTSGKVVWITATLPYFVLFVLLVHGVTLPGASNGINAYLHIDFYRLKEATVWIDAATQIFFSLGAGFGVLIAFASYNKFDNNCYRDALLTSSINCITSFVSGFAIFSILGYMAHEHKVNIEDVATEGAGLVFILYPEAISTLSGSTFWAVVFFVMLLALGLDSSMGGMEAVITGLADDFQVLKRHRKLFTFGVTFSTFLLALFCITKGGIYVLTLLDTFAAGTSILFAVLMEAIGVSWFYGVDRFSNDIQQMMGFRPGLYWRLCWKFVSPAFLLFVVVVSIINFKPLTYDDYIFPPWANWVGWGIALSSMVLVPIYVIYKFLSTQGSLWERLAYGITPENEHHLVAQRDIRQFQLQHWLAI

The target in the assay is Sodium-dependent noradrenaline transporter (Homo sapiens, UniProt P23975). The assay can be described thus: Binding Assay: In order to evaluate the relative affinity of the various compounds at the NE, DA and 5HT transporters, HEK293E cell lines were developed to express each of the three human transporters. cDNAs containing the complete coding regions of each transporter were amplified by PCR from human brain libraries. The cDNAs contained in pCRII vectors were sequenced to verify their identity and …. Format: cell-based.

A word on the Ki: it is a measure of affinity in units of concentration, obtained from inhibition or displacement.

The molecule `CN1Cc2ccccc2C(c2ccc3[nH]ncc3c2)C1Cl` (stereo unspecified) gave a Ki of 2.6 nM.
